Test results from ChEMBL document CHEMBL2375230 (J Med Chem, 2013).

How the values were obtained:
Assay type in all cases: cell-based
HeLa = assay: Inhibition of methionine aminopeptidase in human HeLa cells assessed as increase in ratio of unprocessed 14-3-3gamma to total 14-3-3gamma at 0.1 uM after 24 hrs by immunoblotting analysis relative to DMSO-treated control
E6-1 = assay: Inhibition of methionine aminopeptidase in human Jurkat E6-1 cells assessed as increase in ratio of unprocessed 14-3-3gamma to total 14-3-3gamma at 0.1 uM after 24 hrs by immunoblotting analysis relative to DMSO-treated control
PC-3 = assay: Inhibition of methionine aminopeptidase in human PC3 cells assessed as increase in ratio of unprocessed 14-3-3gamma to total 14-3-3gamma at 0.1 uM after 24 hrs by immunoblotting analysis relative to DMSO-treated control
MCF7 = assay: Inhibition of methionine aminopeptidase in human MCF7 cells assessed as increase in ratio of unprocessed 14-3-3gamma to total 14-3-3gamma at 0.1 uM after 24 hrs by immunoblotting analysis relative to DMSO-treated control

**Q.** Which results are given for `CO[C@@H]1[C@H](OC(=O)NC(=O)CCl)CC[C@]2(CO2)[C@H]1[C@@]1(C)O[C@@H]1CC=C(C)C`?
**A.** Ratio (HeLa): 1.6; Ratio (E6-1): 1; Ratio (PC-3): 1.1; Ratio (MCF7): 1.3
